# Results: PubChem BioAssay AID504803 (The Scripps Research Institute Molecular Screening Center, 2011)
# The chains behind the UniProt entries cited, without tags or fusion partners.
# UniProt Q92743, whole entry, looked up: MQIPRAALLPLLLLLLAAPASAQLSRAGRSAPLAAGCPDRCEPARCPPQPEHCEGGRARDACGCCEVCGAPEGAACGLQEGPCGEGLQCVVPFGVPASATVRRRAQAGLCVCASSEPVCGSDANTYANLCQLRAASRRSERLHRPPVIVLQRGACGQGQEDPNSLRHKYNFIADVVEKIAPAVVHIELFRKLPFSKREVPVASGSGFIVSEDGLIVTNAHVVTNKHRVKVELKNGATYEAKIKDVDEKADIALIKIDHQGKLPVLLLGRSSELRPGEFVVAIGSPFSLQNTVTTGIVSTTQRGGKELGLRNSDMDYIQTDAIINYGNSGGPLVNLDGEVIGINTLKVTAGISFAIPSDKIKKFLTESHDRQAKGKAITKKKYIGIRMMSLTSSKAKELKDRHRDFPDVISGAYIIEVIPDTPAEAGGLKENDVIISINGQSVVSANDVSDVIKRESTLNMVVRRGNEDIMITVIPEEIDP
# The list shows a part of the results, in another mix than the full data. Active and inactive are the calls of the source. Cut-off read from the data, not from the text of the source: active = inhibition above about 36%; inactive = the rest.
# Biological target: Serine protease HTRA1 (Homo sapiens) (UniProt Q92743)
# Test: inhibition of human HTRA1 peptidase – biochemical, fluorescence polarization, HTS, primary screen (AID 504803);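 note: 0% = enzyme with DMSO and 100% = wells lacking enzyme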
# Details: recombinant HTRA1, FP-rhodamine activity-based probe, at 5.96 µM, hits give high values
row,SMILES,inhibition
1,CCOC(=O)Nc1cccc([As](=O)(O)O)c1,inactive: -3.75%
2,O=P(Nc1ccccn1)(c1cccc2ccccc12)c1cccc2ccccc12,inactive: -19.9%
3,Cc1cc(SC(NC=O)C(Cl)(Cl)Cl)ncn1 (stereo not drawn),inactive: 5.43%
4,O=[N+]([O-])c1ccc(Nc2ccc(Oc3ccc([N+](=O)[O-])cc3[N+](=O)[O-])cc2)c([N+](=O)[O-])c1,inactive: -6.1%
5,CCOC(=O)Nc1ccc([As](=O)(O)O)c(O)c1,inactive: 2.15%
6,O=C(O)C(O)c1ccc(N(CCCl)CCCl)cc1 (stereo not drawn),inactive: -0.73%
7,CC1CCNP(=O)(N(CCCl)CCCl)O1 (stereo not drawn),inactive: 3.64%
8,COP(=O)(OC)N1CC1c1ccccc1 (stereo not drawn),inactive: 8.97%
9,CCCCOc1ccc(C(=O)NCC2(N3CCCCC3)CCCCC2)cc1OC,inactive: 4.01%
10,Cc1cc(SC(NC(=O)c2ccccc2)C(Cl)(Cl)Cl)nc(C(C)C)n1 (stereo not drawn),inactive: -5.26%
11,O=C(OC1CN2CCC1CC2)c1cccc([N+](=O)[O-])c1 (stereo not drawn),inactive: 4.57%
12,CSc1ccc(Nc2c([N+](=O)[O-])cc([N+](=O)[O-])cc2[N+](=O)[O-])cc1,active: 48.7%
13,CCOC(=O)c1ccc(NC(=O)C(C)(CCl)SC)cc1 (stereo not drawn),inactive: 7.48%
14,CCC(C)N(CC(C)C)C(=S)SC(NC(C)=O)C(Cl)(Cl)Cl (stereo not drawn),inactive: 7.25%
15,COP1(=S)c2c(C)nn(CCC#N)c2N=C(c2ccc(F)cc2)N1C (stereo not drawn),inactive: -0.22%
16,O=C(O)C(=O)c1ccc(N(CCCl)CCCl)cc1,inactive: -1.52%
17,O=C(COc1ccccc1)OC1CN2CCC1CC2 (stereo not drawn),inactive: 2.16%
18,O=C(Nc1ccncc1[N+](=O)[O-])c1ccc([N+](=O)[O-])cc1[N+](=O)[O-],inactive: -1.9%
19,COc1ccccc1CNC(=O)COC(=O)C(O)(c1ccccc1)c1ccccc1,inactive: -7.89%
20,CC(C)/C=N\N=C(\N)N[N+](=O)[O-],inactive: -1.22%
21,CN(C(=O)Cc1ccc(Cl)c(Cl)c1)[C@@H]1CCCC[C@H]1N1CCCC1,inactive: 4.5%
22,CC1(CBr)Cn2c(nc3ccccc3c2=O)S1 (stereo not drawn),inactive: -3.04%
23,O=P1(Nc2ccccn2)COc2ccccc2OC1,inactive: -3.8%
24,CCC1=CC2Cc3nc4ccc(Cl)cc4c(N)c3C(C1)C2 (stereo not drawn),inactive: -9.2%
25,CCOP(=O)(NC(=NC(C)c1ccccc1)NC(C)c1ccccc1)OCC (stereo not drawn),inactive: 4.92%
26,CCOP(=O)(Nc1ccc(C)cn1)OCC,inactive: 4.42%
27,O=P1(N(CCCl)CCCl)NCCC(C(F)(F)F)O1 (stereo not drawn),inactive: 1.22%
28,Clc1n[nH]nc1-c1nn[nH][15n]1,inactive: 4.74%
